Test results published in PubChem BioAssay AID1454 (National Center for Advancing Translational Sciences (NCATS), 2008).
The list shows a part of the results, in another mix than the full data. Results filed as inconclusive are left out. The source made the active and inactive calls. The call rests on the fitted dose curve; in most records, active means well fitted inhibition curve with a large enough effect; inconclusive means small, poorly fitted or top-dose-only effect, or effect the other way; inactive means flat fitted curve, though single readings scatter.

test: qHTS Assay for Inhibitors of the ERK Signaling Pathway using a Homogeneous Screening Assay; Stimulation with EGF; conditions: HEK293-V1b, EGF-stimulated phospho-ERK AlphaScreen; at 11.5 µM (top of the series) unless noted;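 further: plate controls were stimulated vehicle wells for no effect and unstimulated vehicle basal for full effect; nearly all actives have a fitted effect of over 55% in size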

| Structure (SMILES) | activity change, negative = inhibition |
| --- | --- |
| CP(=O)(OCCOc1ccccc1)OCCOc1ccccc1 | inactive: -0.388% |
| CP(=O)(Nc1ccc(Cl)cc1Cl)Oc1ccccc1 (stereo unspecified) | inactive: -1.23% |
| Cc1cc(C)cc(OP(C)(=O)Nc2cccc(C(F)(F)F)c2)c1 (stereo unspecified) | inactive: -3.28% |
| COc1ccc(OP(C)(=O)Nc2ccccc2Br)cc1 (stereo unspecified) | inactive: 5.17% |
| O=[N+]([O-])c1cc([N+](=O)[O-])c(Nc2ccccn2)c([N+](=O)[O-])c1 | inactive: 4.96% |
| COc1ccccc1OP(C)(=O)Nc1ccccc1Br (stereo unspecified) | inactive: -3.66% [at 57.5 µM] |
| CN(C)C(=O)c1c([N+](=O)[O-])cc([N+](=O)[O-])cc1[N+](=O)[O-] | inactive: -2.24% |
| COc1ccc(OP(C)(=O)Nc2ccc(Br)cc2)cc1 (stereo unspecified) | inactive: -2.9% |
| N#[O+].[C-]#N.[C-]#N.[C-]#N.[C-]#N.[C-]#N.[Fe+2].[Na+].[Na+] | inactive: 11.5% |
| O=C(OCCCN1CCCC1)C(O)(c1ccccc1)C1CCCCC1 (stereo unspecified) | inactive: 16.2% [at 57.5 µM] |
| OCCSCCO | inactive: 5.33% |
| CCc1ccc(OP(C)(=O)Nc2cccnc2)cc1 (stereo unspecified) | inactive: -6.79% |
| C/C1=C2N=C(/C=C3N=C(/C(C)=C4\[N-][C@@](C)([C@H]5N=C1[C@@](C)(CCC(=O)NC[C@H](C)OP(=O)([O-])O[C@@H]1[C@H](O)[C@H](n6cnc7cc(C)c(C)cc76)O[C@@H]1CO)[C@@H]5CC(N)=O)[C@](C)(CC(N)=O)[C@H]4CCC(N)=O)[C@@](C)(CC(N)=O)[C@@H]\3CCC(N)=O)C(C)(C)[C@@H]/2CCC(N)=O.[C-]#N.[Co+3] | inactive: 15.4% [at 25.7 µM] |
| CCOC(=O)c1ccc(NP(C)(=O)Oc2ccc(Cl)cc2)cc1 (stereo unspecified) | inactive: -3.73% |
| O=[N+]([O-])c1ccc(OP2(=O)COCCO2)cc1 (stereo unspecified) | inactive: 8.03% [at 57.5 µM] |
| Cc1cc(-c2cccc3ccccc23)c(C)cn1.O=[N+]([O-])c1cc([N+](=O)[O-])c(O)c([N+](=O)[O-])c1 | inactive: 2.94% [at 57.5 µM] |
| COc1ccc(NP(C)(=O)Oc2ccccc2OC)cc1 (stereo unspecified) | inactive: -7.6% [at 57.5 µM] |
| CP(=O)(Nc1ccc2c(c1)OCCO2)Oc1ccccc1 (stereo unspecified) | inactive: -4.88% |
| CCN(CCCl)Cc1ccccc1C | inactive: 24.2% |
| CP(=O)(Nc1ccc(SC(F)(F)F)cc1)Oc1ccc(F)cc1 (stereo unspecified) | inactive: -1.23% [at 57.5 µM] |
| O=C(OCCN1CCN(CCOCc2ccccc2)CC1)C(O)(c1ccccc1)c1ccccc1 | inactive: -7.61% |
